Measurements reported in patent publication US20180344856A1, “COMPOSITIONS AND/OR ARTICLES WITH IMPROVED SOLUBILITY OF A SOLID ACTIVE” (The Procter & Gamble Company, priority 2012, published 2018).

How the values were obtained:
[1] = Solvency of solvents for tetrahydrocurcuminoids (THC), visual check for crystals after storage; details: solute tetrahydrocurcuminoids (THC), 3% test solution, approximately 1:32 solute to solvent ratio, soluble = no visible crystals; for Solubility, 24 hour rest at Ambient Conditions: heated to 70° C.; for Solubility, 7 day storage at 5° C.: then equilibration to ambient conditions
[2] = Solvency of solvents for hexylresorcinol, visual check for crystals after storage; assay type: physicochemical; details: solute hexylresorcinol, 33.5% test solution, approximately 1:2 solute to solvent ratio, soluble = no visible crystals; for Solubility, 24 hour rest at Ambient Conditions: heated to 70° C.; for Solubility, 7 day storage at 5° C.: then equilibration to ambient conditions
Protocol: (§1) In the testing provided below, “soluble” (or “solubilize”), in relation to the solubility of a solid solute being tested, means that no visible crystals may be seen after a prescribed storage period at a storage condition. The storage period can vary. Suitable storage periods include about 24 hours, about 1 week, and about 30 days. Suitable storage conditions include ambient conditions or cold storage at 5° C. (approximately 1 atm). In certain embodiments, solubility may be determined after a 24 hour storage period at ambient conditions. In other embodiments, solubility may be determined after 20 days in cold storage. Other testing parameters may include storage for prolonged time periods (e.g., 30 day, 50 days, 60 days, 90 days) and at variable temperatures (e.g., 5° C., 50° C.).
(§2) The solvency of an isosorbide diester within the scope of the present invention was tested against two conventional, industry standard solvents. The solvency of isosorbide dicaprylate, isopropyl lauroyl sarcosinate, and C12-15 alkyl benzoate was tested when using hexylresorcinol (commercially available as Synovea® HR from Sytheon, Ltd.) as the solid cosmetic active. A test solution of 33.5% hexylresorcinol is prepared with heating to 70° C. Upon reaching 70° C., the examples may be mixed for about 10 minutes. Place mixtures in a covered vial and cool to the storage temperature. Solubility is evaluated for samples stored 24 hours at ambient conditions. Solubility is also evaluated for samples stored for 7 day at 5° C. followed by equilibration to ambient conditions.

[3] = Solvency of solvents for (S)-Equol, visual check for crystals after storage; assay type: physicochemical; details: solute (S)-Equol, 6% test solution, approximately 1:16 solute to solvent ratio, soluble = no visible crystals; for Solubility, 24 hour rest at Ambient Conditions: heated to 70° C.; for Solubility, 7 day storage at 5° C.: then equilibration to ambient conditions
Protocol: as §1
as §2, with “tested” for “tested when”, “(S)-Equol (i.e., 4′,7-isoflavandiol, commercially” for “hexylresorcinol (commercially”, “available” for “available as Synovea® HR”, “Girindus America, Inc, Reading, Ohio)” for “Sytheon, Ltd.)”, “solution was” for “solution”, “6% Equol” for “33.5% hexylresorcinol”

Row | Substance | Solubility, 24 hour rest at Ambient Conditions [1] | Solubility, 7 day storage at 5° C. [1] | Solubility, 24 hour rest at Ambient Conditions [2] | Solubility, 7 day storage at 5° C. [2] | Solubility, 24 hour rest at Ambient Conditions [3] | Solubility, 7 day storage at 5° C. [3]
1 | C12-15 alkyl benzoate | Insoluble | Insoluble | Soluble | Soluble | Insoluble | Insoluble
2 | isosorbide dicaprylate | Soluble | Soluble | Soluble | Soluble | Soluble | Soluble
